Reference: patent US8569267B2, “Tetracyclic tetrahydrofuran derivatives containing cyclic amine side chain” (Janssen Pharmaceutica, NV, priority 2005, dated 2013)

Sequences of proteins named here, by UniProt entry; tags and fusion partners are left off.
UniProt P28223, whole entry: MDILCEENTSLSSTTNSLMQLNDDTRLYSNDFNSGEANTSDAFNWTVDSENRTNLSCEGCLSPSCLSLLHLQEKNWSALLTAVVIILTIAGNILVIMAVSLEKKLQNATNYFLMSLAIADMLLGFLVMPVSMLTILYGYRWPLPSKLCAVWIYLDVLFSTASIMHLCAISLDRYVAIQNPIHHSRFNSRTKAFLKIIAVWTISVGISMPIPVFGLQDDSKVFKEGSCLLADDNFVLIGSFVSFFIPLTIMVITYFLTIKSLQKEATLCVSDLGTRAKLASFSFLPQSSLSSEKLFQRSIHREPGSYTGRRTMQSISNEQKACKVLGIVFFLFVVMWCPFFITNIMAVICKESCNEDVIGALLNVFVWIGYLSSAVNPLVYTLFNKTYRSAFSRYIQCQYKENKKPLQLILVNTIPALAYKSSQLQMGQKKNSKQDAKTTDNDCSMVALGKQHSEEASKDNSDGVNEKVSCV

target: T1, human cloned 5-HT2A receptor, expressed in L929 cells (Homo sapiens, UniProt P28223); assay: In vitro binding affinity for 5-HT2A receptor ([125I]R91150 radioligand binding); details: 5-HT2A pIC50, human cloned 5-HT2A receptor in L929 cells
T1 construct: expressed in transfected cells; host or cells: L929 cells
Procedure: In Vitro Binding Affinity for 5-HT2A and 5-HT2C Receptors
The interaction of the compounds of Formula (I) with 5-HT2A and 5-HT2C receptors was assessed in in vitro radioligand binding experiments. […] During the incubation, the radioligands bind to the receptor. When equilibrium of binding is reached, the receptor bound radioactivity is separated from the non-bound radioactivity, and the receptor bound activity is counted. The interaction of the test compounds with the receptors is assessed in competition binding experiments. Various concentrations of the test compound are added to the incubation mixture containing the tissue preparation and the radioligand. Binding of the radioligand will be inhibited by the test compound in proportion to its binding affinity and its concentration. The affinities of the compounds for the 5-HT2 receptors were measured by means of radioligand binding studies conducted with: (a) human cloned 5-HT2A receptor, expressed in L929 cells using [^125I]R91150 as radioligand and (b) human cloned 5-HT2C receptor, expressed in CHO cells using [^3H]mesulergine as radioligand.
The results are given in Table 8 below in terms of pIC50 values for the respective compounds.

`CC(=O)OC1CCN(C[C@H]2C[C@@H]3c4ccccc4Cc4ccc(F)cc4[C@@H]3O2)CC1` [Compound 166] and `OC1CCN(C[C@H]2C[C@@H]3c4ccccc4Cc4ccc(F)cc4[C@@H]3O2)CC1` [Compound 144, [2R-(2α, 3aα, 12bβ)]1-(11-fluoro-3,3a,8,12b-tetrahydro-2H-1-oxa-dibenzo[e,h]azulen-2-ylmethyl)-piperidin-4-ol.oxalate (1:1)] are within 1.5-fold of each other in IC50: 0.871 nM for the first, 0.676 nM for the second.

`Cc1cccc(C(=O)NC2CCN(CC3CC4c5ccccc5Cc5ccc(F)cc5C4O3)CC2)c1` (stereo not drawn) [Compound 225] and `O=C(NC1CCN(CC2CC3c4ccccc4Cc4ccc(F)cc4C3O2)CC1)c1ccccc1F` (stereo not drawn) [Compound 232] are within 1.5-fold of each other in IC50: 3.09 nM for the first, 2.51 nM for the second.

Going from `O=C(CSc1ccccc1)NC1CCN(CC2CC3c4ccccc4Cc4ccc(F)cc4C3O2)CC1` (stereo not drawn) [Compound 241] to `O=C(Nc1ccccc1)NC1CCN(CC2CC3c4ccccc4Cc4ccc(F)cc4C3O2)CC1` (stereo not drawn) [Compound 247], the IC50 falls from 5.13 nM to 0.871 nM (5.9-fold). The second is the more potent here.

Compared with `CCOC(=O)C1CCCN(C[C@H]2C[C@@H]3c4ccccc4Cc4ccc(F)cc4[C@@H]3O2)C1` (stereo partly drawn) [Compound 160], `CCOC(=O)C1CCN(C[C@H]2C[C@@H]3c4ccccc4Cc4ccc(F)cc4[C@@H]3O2)CC1` [Compound 162] is 4.5-fold lower in IC50: 5.01 nM for the first, 1.12 nM for the second. The second is the more potent here.

Going from `CC(C)(C)OC(=O)N1CCN(C(=O)C2CCN(CC3CC4c5ccccc5Cc5ccc(F)cc5C4O3)CC2)CC1` (stereo not drawn) [Compound 206] to `O=C(O)C1CCN(C[C@H]2C[C@@H]3c4ccccc4Cc4ccc(F)cc4[C@@H]3O2)CC1` [Compound 157], the IC50 rises from 2.45 nM to 12.3 nM (5-fold).

Compared with `O=C(NCc1cccs1)C1CCN(CC2CC3c4ccccc4Cc4ccc(F)cc4C3O2)CC1` (stereo not drawn) [Compound 195], `O=C(NCc1ccco1)C1CCN(CC2CC3c4ccccc4Cc4ccc(F)cc4C3O2)CC1` (stereo not drawn) [Compound 194] is 1.7-fold lower in IC50: 0.813 nM for the first, 0.468 nM for the second.

`OCCC1CCCN(CC2CC3c4ccccc4Cc4ccc(F)cc4C3O2)C1` (mixture of isomers) [Compound 152] and `OC1CCCN(CC2CC3c4ccccc4Cc4ccc(F)cc4C3O2)C1` (single isomer, unassigned) [Compound 143] are within 1.5-fold of each other in IC50: 1.86 nM for the first, 1.35 nM for the second.

Going from `O=C(NCc1ccccn1)C1CCN(CC2CC3c4ccccc4Cc4ccc(F)cc4C3O2)CC1` (stereo not drawn) [Compound 197] to `O=C(NCc1cccc(I)c1)C1CCN(CC2CC3c4ccccc4Cc4ccc(F)cc4C3O2)CC1` (stereo not drawn) [Compound 196], the IC50 rises from 0.417 nM to 3.63 nM (8.7-fold).

Compared with `O=C(NC1CCN(CC2CC3c4ccccc4Cc4ccc(F)cc4C3O2)CC1)NC1CC1c1ccccc1` (mixture of isomers) [Compound 246], `O=C(NC1CCN(CC2CC3c4ccccc4Cc4ccc(F)cc4C3O2)CC1)c1ccccc1Cl` (stereo not drawn) [Compound 227] is 1.8-fold higher in IC50: 1.29 nM for the first, 2.34 nM for the second.

`O=C(C1CCN(CC2CC3c4ccccc4Cc4ccc(F)cc4C3O2)CC1)N1CC=C(c2ccccc2)CC1` (stereo not drawn) [Compound 207] and `N#CC1(c2ccccc2)CCN(C(=O)C2CCN(CC3CC4c5ccccc5Cc5ccc(F)cc5C4O3)CC2)CC1` (stereo not drawn) [Compound 208] are within 1.5-fold of each other in IC50: 5.5 nM for the first, 4.07 nM for the second.

Going from `OCC1CCN(CC2CC3c4ccccc4Cc4ccc(F)cc4C3O2)CC1` (stereo not drawn) [Compound 151] to `CCOC(=O)CC1CCN(CC2CC3c4ccccc4Cc4ccc(F)cc4C3O2)CC1` (stereo not drawn) [Compound 164, [2R-(2α, 3aα, 12bβ)][1-(11-fluoro-3,3a,8,12b-tetrahydro-2H-1-oxa-dibenzo[e,h]-azulen-2-ylmethyl)-piperidin-4-yl]-acetic acid ethyl ester.oxalate (1:1)], the IC50 rises from 0.912 nM to 2.34 nM (2.6-fold). The first is the more potent here.

Going from `O=C(Cc1cccs1)NC1CCN(CC2CC3c4ccccc4Cc4ccc(F)cc4C3O2)CC1` (stereo not drawn) [Compound 240] to `Cn1cccc1C(=O)NC1CCN(CC2CC3c4ccccc4Cc4ccc(F)cc4C3O2)CC1` (stereo not drawn) [Compound 221], the IC50 falls from 3.16 nM to 1.7 nM (1.9-fold). The second is the more potent here.

`OC1CCCN(CC2CC3c4ccccc4Cc4ccc(F)cc4C3O2)C1` (single isomer, unassigned) [Compound 142] and `O=C(Nc1ccccc1F)C1CCN(CC2CC3c4ccccc4Cc4ccc(F)cc4C3O2)CC1` (stereo not drawn) [Compound 189] cannot be ordered by IC50: 0.575 nM for the first, < 10 nM for the second.

`O=C(NCc1cccc(C(F)(F)F)c1)C1CCN(CC2CC3c4ccccc4Cc4ccc(F)cc4C3O2)CC1` (stereo not drawn) [Compound 182] and `CC(C)c1ccccc1NC(=O)C1CCN(CC2CC3c4ccccc4Cc4ccc(F)cc4C3O2)CC1` (stereo not drawn) [Compound 185] are within 1.5-fold of each other in IC50: 4.27 nM for the first, 3.63 nM for the second.

First: OC1CCCN(CC2CC3c4ccccc4Cc4ccc(F)cc4C3O2)C1 (racemic) [Compound 141]
Second: O=C(NC1CCN(CC2CC3c4ccccc4Cc4ccc(F)cc4C3O2)CC1)c1ccccc1Br (stereo not drawn) [Compound 226]
The IC50 of the first is 2-fold lower: 1.02 nM for the first, 2 nM for the second. The first is the more potent here.
